Data taken from patent US20180371021A1, “PEPTIDOMIMETIC MACROCYCLES AND USES THEREOF” (Aileron Therapeutics, Inc., priority 2017, published 2018).

Tested on: SJSA-1 cells
Assay: Cell viability assay (MTT), SJSA-1
Type: cell-based
Settings: read-out: SJSA-1 EC50 (72 h)

- EC50: 5 to 15 µM
Structure (SMILES): CC(=O)N[C@@H](CC(C)C)C(=O)N[C@H](C(=O)N[C@@H](Cc1ccccc1)C(=O)N[C@]1(C)CCCCCCC=CCCC[C@]2(C)NC(=O)[C@H](CC(C)C)NC(=O)[C@](C)(CCCC=CCCC[C@@](C)(C(=O)N[C@@H](C)C(N)=O)NC(=O)[C@H](CO)NC2=O)NC(=O)[C@H](C)NC(=O)[C@H](Cc2c[nH]c3ccccc23)NC(=O)[C@H](Cc2ccc(O)cc2)NC(=O)[C@H](C)NC1=O)[C@@H](C)O
